Measurements reported in patent US20260248920A1, “COMPOSITION FOR PREVENTING OR TREATING INFLAMMATORY DISEASES, CONTAINING POLY(ORGANOPHOSPHAZENE) POLYMER” (KOREA INSTITUTE OF SCIENCE AND TECHNOLOGY, priority 2022, published 2026).

System: pro-inflammatory cytokines COX-2, IL-1, IL-6, MMP-3, MMP-13, TNF-α
Assay: RT-PCR of blood in defective Achilles tendon model: pro-inflammatory cytokines
Format: in vivo, mice
Conditions: 4 weeks after injection

**Q.** `Cc1ccc(-c2cc(C(F)(F)F)nn2-c2ccc(S(N)(=O)=O)cc2)cc1` [CXB, Celecoxib] was tested. Which “COX-2 expression increase compared to control group” value did it give?
**A.** 6.3 fold

**Q.** And the “IL-1 expression increase compared to control group” value?
**A.** 5.4 fold

**Q.** And the “IL-6 expression increase compared to control group” value?
**A.** 6.0 fold

**Q.** And the “MMP-3 expression increase compared to control group” value?
**A.** 5.9 fold

**Q.** And the “MMP-13 expression increase compared to control group” value?
**A.** 7.2 fold

**Q.** What about the “TNF-α expression increase compared to control group” value of the same compound?
**A.** 6.7 fold
